Test: Lipophilicity (logP) by RP-TLC
Excerpt: Lipophilicity is one of the most important physicochemical properties in pharmaceutical research. It can be considered a key determinant of the pharmacokinetic properties of a drug. It is commonly measured by the partition coefficient between water and n-octanol, being expressed as logP [14]. […] Knowledge of the partition coefficient is valuable: it is frequently used in structure–activity relationship (SAR) and quantitative structure–activity relationship (QSAR) studies. The experimental lipophilicity of the synthesized compounds, viz. benzylideneflavanones, benzylidenechromanones and spiropyrazolines, was determined using RP-TLC. […] It is important to examine the relationship between structure of the compound and its lipophilicity and cytotoxicity.
The RP-TLC experiments were performed on TLC plates (5 × 10 cm) RP-18 F254S (Merck, Darmstadt, Germany). The synthesized compounds were dissolved in N,N-dimethylformamide DMF (2 mg/mL). […] A DMF-water solvent system was used as mobile phase. […] All experiments were performed at room temperature. The logP parameter was calculated using the equation from the calibration curve.

For `O=c1c(O)c(-c2ccc(O)c(O)c2)oc2cc(O)cc(O)c12` [Quercetin, reference compound], the chromatographic logP was 2.16.

— PMC7180617, “Biological Evaluation of 3-Benzylidenechromanones and Their Spiropyrazolines-Based Analogues” (Molecules, 2020)
